Data on one compound can be found in patent publication USH1209H, “No-carrier-added (18F)-N-methylspiroperidol” (The United States of America as represented by the United …, priority 1985, dated 1993).

The nature of the data set: Metabolic stability and uptake in rat brain (striatum, cerebellum). To be noted: for Ave. & Inj. Dose per Region / Ave. % of Total Radioactivity Extracted: n = 2. It counts as in vivo, rat (male BNL R strain). The procedure:
To investigate the metabolic stability of [^18 F]-N-methylspiroperidol in the central nervous system, its stability in rat brain studied (Table 2). […] However, rat striatal uptake of the N-methyl radioligand was five-fold higher than with [^18 F]spiroperidol.
Four male BNL R strain rats (350-380 g) (Brookhaven National Laboratory, Upton, N.Y.) were injected with 1.4 to 1.8 mCi of [^18 F]-N-methylspiroperidol, i.v. At 1 or 4 hrs after injection (2 animals each), the animal was killed and the combined striata and cerebellum were separately counted and homogenized in a mixture of 1 ml of MeOH and 2 ml of 0.4M HClO4. The samples were centrifuged, and the entire supernates were analyzed for unchanged [^18 F]-N-methylspiroperidol.

Molecules are shown by their SMILES.

Turning to `CN1CN(c2ccccc2)C2(CCN(CCCC(=O)c3ccc([18F])cc3)CC2)C1=O` [[^18 F]-N-methylspiroperidol], for the setting “Examples 3 and 5”, the “distribution and stability compared with [^18 F]spiroperidol” value is listed as “superior”. Moreover, the “Ave. & Inj. Dose per Region” value reads like this: (rat cerebellum, 1 h after injection, ind. values 0.0149, 0.0141) 0.0145; (rat cerebellum, 4 h after injection, ind. values 0.0025, 0.0024) 0.0024; (rat striatum, 1 h after injection, ind. values 0.0712, 0.0612) 0.0662; (rat striatum, 4 h after injection, ind. values 0.0723, 0.0653) 0.0688. Moreover, the “Ave. % of Total Radioactivity Extracted” value is listed as 74% (rat cerebellum, 1 h after injection, ind. values 74, 74); 76% (rat cerebellum, 4 h after injection, ind. values 77, 74); 89% (rat striatum, 1 h after injection, ind. values 88, 90); 88% (rat striatum, 4 h after injection, ind. values 88, 88). Further, the “rat striatal uptake relative to [^18 F]spiroperidol” value (rat striatum, N-methyl radioligand higher) is given as “five-fold”. The “absolute amount in the striatum” value (rat, 1 to 4 hrs after injection) is on record as “remaining constant from 1 to 4 hrs after injection”.
